Reference: article PMC2882293 (Neuropharmacology, 2010)

Amino acid sequences for entries named in this document (tags omitted).
UniProt P47746, whole entry: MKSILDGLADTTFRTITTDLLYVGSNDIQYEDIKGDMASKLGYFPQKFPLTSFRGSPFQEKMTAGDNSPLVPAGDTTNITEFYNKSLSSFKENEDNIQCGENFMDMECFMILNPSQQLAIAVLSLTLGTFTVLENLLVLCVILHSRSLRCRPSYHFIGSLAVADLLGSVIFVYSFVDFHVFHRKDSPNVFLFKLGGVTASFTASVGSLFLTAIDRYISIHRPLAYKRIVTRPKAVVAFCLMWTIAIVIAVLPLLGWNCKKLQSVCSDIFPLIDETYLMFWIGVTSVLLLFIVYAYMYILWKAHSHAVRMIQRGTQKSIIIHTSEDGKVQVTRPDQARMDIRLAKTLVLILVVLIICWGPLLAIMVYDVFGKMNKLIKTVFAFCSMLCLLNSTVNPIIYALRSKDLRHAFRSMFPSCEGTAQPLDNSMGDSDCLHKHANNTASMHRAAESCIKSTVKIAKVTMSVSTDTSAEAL

Target: cannabinoid type 1 receptor (CB1R) (Mus musculus, UniProt P47746)
Test: whole-cell electrophysiology, inhibition of synaptic GABA IPSCs in CA1 neurons

For `CCCCCc1cc(O)c2c(c1)OC(C)(C)[C@@H]1CCC(C)=C[C@@H]21` [Δ^9-THC], the EC50 was 1220 nM.
